Assay results published in patent US8541588B2 (dated 2013).

The chains behind the UniProt entries cited, without tags or fusion partners.
UniProt Q15858, whole entry: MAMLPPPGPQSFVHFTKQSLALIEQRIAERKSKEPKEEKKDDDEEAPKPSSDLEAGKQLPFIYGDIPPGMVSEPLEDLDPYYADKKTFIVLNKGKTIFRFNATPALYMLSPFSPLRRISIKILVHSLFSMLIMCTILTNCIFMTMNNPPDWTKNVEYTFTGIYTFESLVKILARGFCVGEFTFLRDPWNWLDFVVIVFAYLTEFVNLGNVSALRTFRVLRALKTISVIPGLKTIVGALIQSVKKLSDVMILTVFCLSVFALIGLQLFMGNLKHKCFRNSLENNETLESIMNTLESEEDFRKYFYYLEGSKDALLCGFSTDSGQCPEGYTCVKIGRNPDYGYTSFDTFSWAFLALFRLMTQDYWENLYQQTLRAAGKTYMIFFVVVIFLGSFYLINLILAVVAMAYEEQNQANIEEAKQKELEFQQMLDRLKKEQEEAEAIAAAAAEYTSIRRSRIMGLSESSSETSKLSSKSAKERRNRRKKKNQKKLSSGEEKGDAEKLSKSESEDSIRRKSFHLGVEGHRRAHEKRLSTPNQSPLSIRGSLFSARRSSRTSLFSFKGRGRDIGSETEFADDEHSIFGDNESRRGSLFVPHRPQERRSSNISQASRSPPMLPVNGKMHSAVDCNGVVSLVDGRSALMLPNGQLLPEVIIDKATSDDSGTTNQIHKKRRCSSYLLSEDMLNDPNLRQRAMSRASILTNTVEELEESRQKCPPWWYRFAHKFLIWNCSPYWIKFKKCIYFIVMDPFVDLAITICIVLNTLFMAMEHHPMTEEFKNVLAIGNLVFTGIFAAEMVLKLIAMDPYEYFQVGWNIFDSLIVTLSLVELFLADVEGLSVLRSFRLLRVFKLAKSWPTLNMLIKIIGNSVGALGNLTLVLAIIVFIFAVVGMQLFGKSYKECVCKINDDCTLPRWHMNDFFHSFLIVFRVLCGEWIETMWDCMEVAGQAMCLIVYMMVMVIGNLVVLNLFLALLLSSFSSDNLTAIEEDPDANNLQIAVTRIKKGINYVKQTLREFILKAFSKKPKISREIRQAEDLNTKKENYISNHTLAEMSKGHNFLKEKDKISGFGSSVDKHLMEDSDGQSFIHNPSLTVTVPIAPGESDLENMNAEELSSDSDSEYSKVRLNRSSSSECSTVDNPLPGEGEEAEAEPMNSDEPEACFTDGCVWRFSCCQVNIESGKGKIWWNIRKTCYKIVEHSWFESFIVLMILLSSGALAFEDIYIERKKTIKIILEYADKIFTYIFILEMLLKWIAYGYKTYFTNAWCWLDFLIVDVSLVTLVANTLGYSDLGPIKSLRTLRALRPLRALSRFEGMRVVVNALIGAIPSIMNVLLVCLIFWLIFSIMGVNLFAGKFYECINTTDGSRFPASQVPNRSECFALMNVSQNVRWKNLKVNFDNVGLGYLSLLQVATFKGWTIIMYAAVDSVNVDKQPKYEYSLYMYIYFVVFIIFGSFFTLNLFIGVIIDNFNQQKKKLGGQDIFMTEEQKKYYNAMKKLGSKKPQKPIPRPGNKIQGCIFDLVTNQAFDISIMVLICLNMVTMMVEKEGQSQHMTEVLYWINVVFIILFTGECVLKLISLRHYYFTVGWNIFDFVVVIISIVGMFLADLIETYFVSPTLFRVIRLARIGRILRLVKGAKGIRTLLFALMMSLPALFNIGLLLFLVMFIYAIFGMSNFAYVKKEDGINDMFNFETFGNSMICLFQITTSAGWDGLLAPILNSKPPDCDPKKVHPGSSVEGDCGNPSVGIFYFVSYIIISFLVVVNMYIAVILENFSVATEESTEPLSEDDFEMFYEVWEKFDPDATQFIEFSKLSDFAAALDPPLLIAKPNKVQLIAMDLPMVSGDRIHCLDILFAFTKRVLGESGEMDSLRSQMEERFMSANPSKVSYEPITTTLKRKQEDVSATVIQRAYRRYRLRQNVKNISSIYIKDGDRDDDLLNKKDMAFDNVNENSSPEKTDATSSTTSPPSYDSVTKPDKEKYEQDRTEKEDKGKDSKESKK

Target: Nav1.7 (or SCN9A) channel; HEK cells stably transfected with hSCN9A (Homo sapiens, UniProt Q15858)
Experiment: Nav1.7 block, PatchXpress 7000 automated whole-cell voltage clamp, estimated IC50 (EIC50)
Details: read-out: SCN9A EIC50, PatchXpress platform, Examples 283-814

IC50: 17 nM
SMILES: N#Cc1cc(S(=O)(=O)Nc2ncns2)ccc1Oc1ccc(C(F)(F)F)cc1-c1cn[nH]c1 [Example 438]
